Experimental data as given in PMC10402201, “CYP5122A1 encodes an essential sterol C4-methyl oxidase in Leishmania donovani and determines the antileishmanial activity of antifungal azoles” (Research Square, 2023).

By UniProt entry, the sequences of proteins in these tests, tags left out. Residues count along the entry.
UniProt A0A3S7WRS7, 32-480: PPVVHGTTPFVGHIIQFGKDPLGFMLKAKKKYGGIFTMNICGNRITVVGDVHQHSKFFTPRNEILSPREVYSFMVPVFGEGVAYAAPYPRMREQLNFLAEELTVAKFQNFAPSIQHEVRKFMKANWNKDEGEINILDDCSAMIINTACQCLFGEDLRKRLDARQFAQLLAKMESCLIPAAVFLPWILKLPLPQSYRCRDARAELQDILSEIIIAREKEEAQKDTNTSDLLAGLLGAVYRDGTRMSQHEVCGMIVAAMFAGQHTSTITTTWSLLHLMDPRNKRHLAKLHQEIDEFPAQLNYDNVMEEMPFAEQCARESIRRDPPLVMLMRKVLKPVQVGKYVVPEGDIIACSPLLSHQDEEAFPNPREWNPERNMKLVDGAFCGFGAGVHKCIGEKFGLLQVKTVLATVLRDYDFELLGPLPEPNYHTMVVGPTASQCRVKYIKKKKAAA

Assays:
CYP51 = target: T1, CYP51 (Leishmania donovani, UniProt A0A3S7WRS7); experiment: UV-Vis difference spectra (type II binding), plus BFC inhibition assay
T1 construct: gene LdCL_110017000; truncated form of XP_003859085.1 without the first 31 amino acids (transmembrane domain), N-terminal solubility tag, C-terminal His-tag

CYP5122A1 = target: T2, CYP5122A1 (Leishmania donovani, UniProt A0A3S7X0B6); parameters: gene LdCL_270005800
T2 sequence (A0A3S7X0B6 61-592): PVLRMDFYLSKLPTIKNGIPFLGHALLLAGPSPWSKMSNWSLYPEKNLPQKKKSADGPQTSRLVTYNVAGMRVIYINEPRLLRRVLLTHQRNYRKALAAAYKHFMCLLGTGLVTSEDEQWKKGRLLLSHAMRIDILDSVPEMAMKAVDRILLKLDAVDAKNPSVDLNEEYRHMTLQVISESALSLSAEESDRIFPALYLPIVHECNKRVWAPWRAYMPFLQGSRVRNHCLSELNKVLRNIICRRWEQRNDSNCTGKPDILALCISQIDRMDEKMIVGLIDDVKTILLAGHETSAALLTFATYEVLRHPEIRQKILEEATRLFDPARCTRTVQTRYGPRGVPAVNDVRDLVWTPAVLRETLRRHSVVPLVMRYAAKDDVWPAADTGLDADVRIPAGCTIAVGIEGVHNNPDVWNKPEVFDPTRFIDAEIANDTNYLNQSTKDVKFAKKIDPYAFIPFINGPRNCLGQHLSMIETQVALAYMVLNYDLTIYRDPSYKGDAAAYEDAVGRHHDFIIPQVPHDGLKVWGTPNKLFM

CC[C@@H]([C@H](C)O)n1ncn(-c2ccc(N3CCN(c4ccc(OC[C@@H]5CO[C@@](Cn6cncn6)(c6ccc(F)cc6F)C5)cc4)CC3)cc2)c1=O [posaconazole]
UV-Vis difference spectra (type II binding), plus BFC inhibition assay (CYP51): Posaconazole exhibited type II binding to CYP51, but a type II-like binding to CYP5122A1 | UV-Vis difference spectra (type II-like binding), plus BFC inhibition assay (CYP5122A1): Posaconazole exhibited type II binding to CYP51, but a type II-like binding to CYP5122A1
